# Data reported in patent US20250186602A1, “HUMANIZED ANTIBODY THAT BONDS TO EVA1 PROTEIN OR FUNCTIONAL FRAGMENT THEREOF, ANTIBODY-DRUG CONJUGATE AND CHIMERIC ANTIGEN RECEPTOR” (CURED INC., priority 2022, published 2025).
# System: Human glioma stem cells (hGIC)
# Test: Cytotoxicity assay of B2E5-ADC against glioma (MTT)
# Format: cell-based
# Conditions: hGIC E6, hGIC E16, 3 days
# Experimental: Human glioma stem cells (hGIC) were inoculated in a 96-well plate in an amount of 1000 cells per well. Next, B2E5-H2-L2, B2E5-ADC, or Kadcyla (trastuzumab emtansine) serially diluted two-fold was added in an amount of 100 μl/well, followed by culturing for 3 days in a CO2 incubator at 37° C. Then, 5 μl of MTT (5 mg/ml, Wako Pure Chemical) was added to each well, followed by culturing for 2 hours in a CO2 incubator at 37° C. After the culture liquid was discarded, 90 μl of DMSO was added, and after the cells were dissolved, the absorbance (570 nm) was measured by using a benchmark (Bio-Rad).
# Note that as a positive control (100%), a measured value in a well in the absence of the antibody was used. In addition, as a negative control (0%), a measured value obtained by adding 5 μl of 1% TritonX100 to a well in the absence of the antibody was used.
substance,measurement,value
Kadcyla: Kadcyla (trastuzumab emtansine) [reference compound],cytotoxic activity against hGIC,no cytotoxic activity
